In the library only some 16% were active in any assay of this set; here they are far more common.
uPA surface inh: inhibitors of cell surface uPA generation | cell surface uPA generation assay, qHTS | Potency, µM (titrated, usually from 38.3 µM), actives largely listed as inhibitors | 330,000 tested, 0.31% active | AID 540303; active means well fitted inhibition curve with a large enough effect; inconclusive means small, poorly fitted or top-dose-only effect; inactive means no such curve, though single readings can be large or run the other way; tested in mouse RAW 264.7 cells; further: nearly all actives have a fitted effect of over 55% in size
miR-21 FLuc: miR-21 reporter, rising signal | 340,000 tested, under 10 active | AID 2288 | HeLa miR-21 FLuc reporter, luciferase, 48 h | Potency, µM (titrated, usually from 38.3 µM); active = well fitted rising curve with a large enough effect; inconclusive = small, poorly fitted or top-dose-only effect; inactive = no such curve, though single readings can be large or run the other way;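 further: miR-21 action dims this reporter so a rising signal means less miR-21 action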
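HeLa cells endogenously expressing miR-21, stably carrying CMV-driven firefly luciferase with a downstream miR-21 binding site, 2000 cells/well. Titrations up to approximately 40 uM, 48 hours; luciferase luminescence read.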
TDP1 cell CPT: DT40-hTDP1 cell growth loss with CPT | 420,000 tested, 12% active | AID 686979 | Potency, µM (highest dose often 46.2 µM), hits mostly inhibitors | chicken DT40 Tdp1-/-;hTDP1 cells + 20 nM CPT, ATP luminescence, 48 h; further: nearly all actives have a fitted effect of over 55% in size
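Chicken DT40 Tdp1-/- cells complemented with human TDP1, 400 cells/well, exposed to compounds plus 20 nM camptothecin for at least 48 h at 37 C; viability read as ATP content by CellTiter-Glo luminescence.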
TDP1 cell noCPT: qHTS for Inhibitors of human tyrosyl-DNA phosphodiesterase 1 (TDP1): qHTS in cells in absence of CPT | 420,000 tested, 15% active | DT40 Tdp1-/- hTDP1 cells, no CPT, ATP luminescence, 48 h | Potency, µM (top dose mostly 46.2 µM), usual class: inhibitors | AID 686978, 2013; further: nearly all actives have a fitted effect of over 55% in size
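A cellular qHTS used chicken DT40 cells lacking endogenous Tdp1 but carrying stably transfected human TDP1. Compounds were applied without camptothecin, and cell growth kinetics were judged by ATP-dependent luminescence after ≥48 hr.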
TDP1 inh: TDP1 (human) enzyme inhibition | Q9NUW8 | recombinant TDP1, AlphaScreen DNA substrate cleavage | Potency, µM (titrated, usually from 130 µM), actives largely listed as inhibitors | 350,000 tested, 0.28% active | AID 485290; further: nearly all actives have a fitted effect of over 40% in size
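Compounds were preincubated with Tdp1 (1 nM final) for 15 min at room temperature before substrate (15 nM final) started a 5 min reaction; beads (10 ug/ml final) were then added for 10 min before AlphaScreen detection.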
Of the large screens only hits and unclear results are named; the others gave an inactive call. Unless noted, the call rests on the fitted dose curve; in most records, active means well fitted curve in the direction sought with a large enough effect; inconclusive means small, poorly fitted or top-dose-only effect, or another doubt; inactive means no such curve, though single readings can be large; an effect the other way counts as inactive or inconclusive.

Cc1ccc(S(=O)(=O)N2CCCCC2)cc1NC(=O)c1ccc2ccccc2n1	none
COc1ccc(NC(=O)c2ccc3ccccc3n2)cc1S(=O)(=O)N1CCCCC1	TDP1 cell CPT 21µM, TDP1 cell noCPT 16µM
O=S(=O)(Nc1nc2ccccc2nc1Nc1ccc2c(c1)OCO2)c1ccc(F)cc1	TDP1 cell CPT 18µM, TDP1 cell noCPT 13µM
COc1ccc(NC(=O)c2cc3ccccc3o2)cc1S(=O)(=O)N1CCCCC1	TDP1 cell CPT inconclusive, TDP1 cell noCPT inconclusive (no result: miR-21 FLuc)
O=C(Nc1cccc(S(=O)(=O)N2CCCCC2)c1)c1ccccn1	none
COc1ccc(S(=O)(=O)N2CCCCC2)cc1NC(=O)c1ccc2ccccc2n1	TDP1 cell CPT 15µM, TDP1 cell noCPT 13µM
O=C(Nc1cccc(S(=O)(=O)N2CCCCCC2)c1)c1ccc2ccccc2n1	TDP1 cell CPT inconclusive, TDP1 cell noCPT 18µM
CCOC(=O)C1=C(C)NC2=C(C(=O)CCC2)C1c1coc2ccccc2c1=O (centres undefined)	none
CC1(c2cnc(Nc3ccccc3)s2)CCC(=O)O1 (centres undefined)	none
CC(=O)c1ccc(Nc2nc3ccccc3nc2NS(=O)(=O)c2cccs2)cc1	TDP1 cell CPT 15µM, TDP1 cell noCPT 9.2µM
O=C(Nc1cccc(S(=O)(=O)N2CCCCC2)c1)c1c2c(nc3ccccc13)CCN(Cc1ccccc1)C2	TDP1 cell CPT 21µM, TDP1 cell noCPT 18µM
CCc1ccc(Nc2nc3ccccc3nc2NS(=O)(=O)c2ccccc2)cc1	TDP1 cell CPT 16µM, TDP1 cell noCPT 21µM (no result: uPA surface inh, TDP1 inh)
COc1ccc(S(=O)(=O)Nc2cccc(S(=O)(=O)N3CCCCCC3)c2)cc1	TDP1 cell noCPT inconclusive
COc1ccc(Nc2nc3ccccc3nc2NS(=O)(=O)c2cccs2)cc1	TDP1 cell CPT inconclusive, TDP1 cell noCPT inconclusive
O=S(=O)(Nc1nc2ccccc2nc1Nc1cccc(S(=O)(=O)N2CCCCC2)c1)c1ccccc1	TDP1 cell CPT 6.5µM, TDP1 cell noCPT 5.8µM
O=C(CN1CCN(Cc2ccccc2)CC1)Nc1cccc(S(=O)(=O)N2CCCCCC2)c1	TDP1 cell CPT inconclusive, TDP1 cell noCPT inconclusive
CCN(C(=O)CCS(=O)(=O)c1ccc2c(c1)CCN2C(C)=O)c1cccc(C(F)(F)F)c1	TDP1 cell noCPT inconclusive (no result: uPA surface inh)
COCCCNC(=O)c1ccc(-n2c(-c3ccccc3)cc3c2CCCC3)cc1	TDP1 cell CPT inconclusive, TDP1 cell noCPT 21µM (no result: uPA surface inh)
CCN(CC)CCNC(=O)c1ccc(-n2c(-c3ccccc3)cc3c2CCCC3)cc1	TDP1 cell CPT inconclusive, TDP1 cell noCPT inconclusive (no result: uPA surface inh)
COc1cccc(CNC(=O)c2ccc(-n3c(C)cc4c3CCCC4)cc2)c1	TDP1 cell noCPT 16µM (no result: uPA surface inh)
COc1cccc(CNC(=O)c2ccc(NC(=O)N3CCCCc4ccccc43)cc2)c1OC	TDP1 cell CPT inconclusive, TDP1 cell noCPT 16µM (no result: uPA surface inh)
COc1cccc(CNC(=O)c2ccc(NC(=O)N3CCCCc4ccccc43)cc2)c1	TDP1 cell CPT inconclusive, TDP1 cell noCPT 21µM (no result: uPA surface inh)
COc1cccc(CNC(=O)c2ccc(C(=O)NCc3cccc(OC)c3)cc2)c1	none
COCCNC(=O)c1ccc(NC(=O)N2CCCCc3ccccc32)cc1	none (no result: uPA surface inh)
O=C(CNCc1ccco1)Nc1cccc(S(=O)(=O)N2CCCCC2)c1	none
Cc1ccc(OCC(=O)NNC(=O)c2cc3ccccc3o2)cc1C	none (no result: TDP1 inh)
Cc1ccccc1OCC(=O)Nc1ccc2nc(SCC(N)=O)sc2c1	TDP1 cell CPT inconclusive, TDP1 cell noCPT inconclusive (no result: uPA surface inh)
COc1ccc(NC(=O)CSc2nnc(C(C)C)n2N)cc1	none
O=C(CSCc1ccc(Br)cc1)NC1CC1	none
COc1ccccc1N(Cc1cc(=O)[nH]c2ccccc12)C(=O)c1ccc([N+](=O)[O-])cc1	TDP1 cell CPT 21µM, TDP1 cell noCPT 12µM
CCCCCCCc1cc2ccccc2c(=O)o1	none (no result: uPA surface inh, miR-21 FLuc, TDP1 cell CPT, TDP1 cell noCPT)
CCC(=O)Nc1cccc(C(=O)c2ccccc2)c1	none
CC(=O)Nc1cccc(C(=O)OC(C(=O)c2ccc(C)c(C)c2)c2ccccc2)c1 (centres undefined)	TDP1 cell CPT 16µM, TDP1 cell noCPT 16µM
CC(=O)c1cccc(NC(=O)Cc2cccs2)c1	none (no result: uPA surface inh)
CCC(=O)Nc1cccc(C(=O)/C=C/c2ccccc2)c1	miR-21 FLuc inconclusive, TDP1 cell CPT 4.1µM, TDP1 cell noCPT 5.2µM (no result: TDP1 inh)
O=C(/C=C/c1ccccc1)N/C(=C/c1ccccc1)C(=O)Nc1cccc(C(=O)O)c1	none
CCC(=O)Nc1cccc(C(=O)c2ccc(C)c(C)c2)c1	TDP1 cell noCPT 21µM
CCC(=O)Nc1cccc(C(=O)/C=C/c2cccs2)c1	uPA surface inh inconclusive, TDP1 cell CPT inconclusive, TDP1 cell noCPT 21µM
CC(Oc1ccccc1)C(=O)N1CCC2(CC1)Oc1ccc(F)cc1C(=O)C21CC(c2ccc(Cl)cc2)=NO1 (centres undefined)	none (no result: miR-21 FLuc, TDP1 inh)
O=C(c1cccs1)N1CCC2(O)CCCCC2C1c1ccc(F)cc1 (centres undefined)	none
CC1(C(=O)Nc2cccnc2)Cc2c(-c3ccc4c(c3)OCO4)ccnc2O1 (centres undefined)	TDP1 cell noCPT inconclusive (no result: uPA surface inh, miR-21 FLuc, TDP1 inh)
CC(=O)c1cccc(NC(=O)C2(C)Cc3c(-c4cccc(C(F)(F)F)c4)ccnc3O2)c1 (centres undefined)	TDP1 cell CPT 16µM, TDP1 cell noCPT 23µM (no result: uPA surface inh, miR-21 FLuc, TDP1 inh)
CC1(C(=O)Nc2cccnc2)Cc2c(-c3cccc(C(F)(F)F)c3)ccnc2O1 (centres undefined)	TDP1 cell CPT 16µM, TDP1 cell noCPT 23µM (no result: uPA surface inh, miR-21 FLuc, TDP1 inh)
CC1(C(=O)Nc2cccc(NS(C)(=O)=O)c2)Cc2c(-c3cccc(C(N)=O)c3)ccnc2O1 (centres undefined)	none (no result: uPA surface inh, miR-21 FLuc, TDP1 inh)
Cc1ccc(/C=N/NC(=O)c2ccc3nc[nH]c3c2)o1	none
C=CCn1c(COc2cc(C)ccc2C(C)C)nnc1SCC(=O)c1c(N)n(C)c(=O)n(C)c1=O	TDP1 cell CPT inconclusive, TDP1 cell noCPT 23µM, TDP1 inh inconclusive
COc1ccc(CCNC(=O)Nc2nc(C(N)Cc3ccccc3)cs2)cc1OC (centres undefined)	TDP1 cell CPT inconclusive, TDP1 cell noCPT 21µM (no result: uPA surface inh, miR-21 FLuc, TDP1 inh)
COC(=O)c1ccccc1NC(=O)NCCc1ccc(OC)c(OC)c1	TDP1 cell noCPT inconclusive
COc1ccc(CC(N)c2csc(NC(=O)NCCc3ccc(OC)c(OC)c3)n2)cc1 (centres undefined)	TDP1 cell CPT 18µM, TDP1 cell noCPT inconclusive (no result: uPA surface inh, miR-21 FLuc, TDP1 inh)
COc1ccc(CCNC(=O)Nc2nc(CN)cs2)cc1OC	TDP1 cell CPT inconclusive (no result: uPA surface inh, miR-21 FLuc, TDP1 inh)
COc1ccccc1CNC(=O)COC(=O)Cc1c(F)cccc1Cl	none
CCC(=O)Nc1ccc(CC)cc1-c1nc2ccccc2n(CC(=O)Nc2cccc(Cl)c2)c1=O	TDP1 cell CPT 21µM, TDP1 cell noCPT inconclusive (no result: uPA surface inh)
CN(C)CCN(C(=O)CCc1ccccc1)c1nc2c(F)cc(F)cc2s1	none

Bioassay records (PubChem BioAssay)
